One compound from ChEMBL document CHEMBL1129794, “Synthesis and evaluation of 2-[(5-methylbenz-1-ox-4-azin-6-yl)imino]imidazoline, a potent, peripherally acting alpha 2 adrenoceptor agonist” (J Med Chem, 1996) can be followed below.

The chains behind the UniProt entries cited, without tags or fusion partners. Where a name states a change or a piece, a line headed by the entry shows the natural chain unless it says otherwise.
UniProt P08913: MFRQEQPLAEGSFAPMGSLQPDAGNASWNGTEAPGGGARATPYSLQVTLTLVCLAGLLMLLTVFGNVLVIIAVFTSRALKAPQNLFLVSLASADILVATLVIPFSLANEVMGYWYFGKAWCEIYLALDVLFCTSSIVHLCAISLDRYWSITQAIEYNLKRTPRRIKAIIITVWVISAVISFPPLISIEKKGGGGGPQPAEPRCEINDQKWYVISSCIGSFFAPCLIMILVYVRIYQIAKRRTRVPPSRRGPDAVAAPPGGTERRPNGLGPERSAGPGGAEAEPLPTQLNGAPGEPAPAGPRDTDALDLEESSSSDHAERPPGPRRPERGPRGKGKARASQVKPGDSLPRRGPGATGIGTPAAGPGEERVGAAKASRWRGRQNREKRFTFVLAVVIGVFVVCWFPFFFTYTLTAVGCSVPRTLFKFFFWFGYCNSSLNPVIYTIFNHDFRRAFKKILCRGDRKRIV
UniProt P18825: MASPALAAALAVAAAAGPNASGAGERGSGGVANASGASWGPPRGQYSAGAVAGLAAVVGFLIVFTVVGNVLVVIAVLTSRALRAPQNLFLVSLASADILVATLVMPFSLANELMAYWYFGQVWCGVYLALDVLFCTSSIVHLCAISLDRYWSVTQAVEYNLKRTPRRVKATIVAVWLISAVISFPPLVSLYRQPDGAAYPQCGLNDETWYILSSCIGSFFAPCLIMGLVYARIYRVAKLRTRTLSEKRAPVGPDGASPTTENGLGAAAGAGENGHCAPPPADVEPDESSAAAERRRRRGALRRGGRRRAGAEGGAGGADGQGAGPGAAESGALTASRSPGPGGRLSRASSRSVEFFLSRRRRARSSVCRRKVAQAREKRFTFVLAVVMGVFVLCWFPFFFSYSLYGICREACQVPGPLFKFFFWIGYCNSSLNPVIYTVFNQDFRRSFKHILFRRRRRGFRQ
UniProt P18089: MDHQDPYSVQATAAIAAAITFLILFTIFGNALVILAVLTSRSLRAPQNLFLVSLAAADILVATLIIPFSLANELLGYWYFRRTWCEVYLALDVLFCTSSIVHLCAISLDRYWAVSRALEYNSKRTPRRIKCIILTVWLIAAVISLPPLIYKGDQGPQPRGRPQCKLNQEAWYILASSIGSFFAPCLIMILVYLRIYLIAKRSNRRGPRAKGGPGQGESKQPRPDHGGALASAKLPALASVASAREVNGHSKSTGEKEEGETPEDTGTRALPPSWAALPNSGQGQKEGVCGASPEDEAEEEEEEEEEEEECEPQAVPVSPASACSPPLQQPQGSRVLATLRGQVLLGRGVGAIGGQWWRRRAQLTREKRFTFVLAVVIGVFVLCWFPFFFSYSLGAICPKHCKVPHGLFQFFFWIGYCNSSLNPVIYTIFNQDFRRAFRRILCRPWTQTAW

This assay deals with Adrenergic receptor alpha-2 (Homo sapiens, UniProt P08913+P18825+P18089). In kind it is functional, Oryctolagus cuniculus.

Take `Nc1cc(Cl)c(N=C2NCCN2)c(Cl)c1` [APRACLONIDINE]: the EC50 (commonly the concentration needed to bring the measured effect to its halfway point) is 1.9 nM.
